From patent publication US20230346796A1 (priority 2010, published 2023)
Converted amounts (≈) assume the structure as drawn.

System: healthy volunteers and patients undergoing a colonoscopy
Test: CNS 7056-fentanyl interaction MOAA/S pharmacodynamic analysis
Conditions: for Scoping Factor: N 36
[1] = Run FEN16S, zero score -1.5, five score 5.1
[2] = Run FEN17S, zero score -1.5, five score 5.0
[3] = Run FEN20S, zero score -1.25, five score 5.05
[4] = Run FEN21S, zero score -1.3, five score 5.05
[5] = Run FEN22S, zero score -1.3, five score 5.05
[6] = Run FEN23S, zero score -1.25, five score 5.0
[7] = Run FEN24S, zero score -1.25, five score 5.0
[8] = Run FEN25S, zero score -1.25, five score 5.0
[9] = Run FEN27S, zero score -1.25, five score 5.0
[10] = Run FEN28S, zero score -1.25, five score 5.0
[11] = Run FEN29S, zero score -1.25, five score 5.0
[12] = Run FEN30S, zero score 0.01, five score 5.0
[13] = Studies CNS 7056-001 and -002 combined, number of records
[14] = model CNS7056FEN19S, three-compartment
[15] = model CNS7056FEN19S, three-compartment, RSE not given
[16] = model CNS7056FEN26S, three-compartment
[17] = model CNS7056FEN135S19, four-compartment
[18] = model CNS7056FEN135S19, four-compartment, RSE not given
[19] = model CNS7056FEN135S26, four-compartment
[20] = model CNS7056FEN159S19, three-compartment, heart-rate predicting cardiac output and central volume
[21] = model CNS7056FEN159S19, three-compartment, heart-rate predicting cardiac output and central volume, RSE not given
[22] = model CNS7056FEN159S26, three-compartment, heart-rate predicting cardiac output and central volume

SMILES: COC(=O)CC[C@@H]1N=C(c2ccccn2)c2cc(Br)ccc2-n2c(C)cnc21 [CNS 7056, 3-[(4S)-8-bromo-1-methyl-6-(2-pyridinyl)-4H-imidazo[1,2-a][1,4]benzodiazepin-4-yl] propionic methyl ester]
- EMIN (first line so headed), eta IIV (RSE%) (CNS7056FEN32S): 29.06 (11.6)
- EMIN (second line so headed), eta IIV (RSE%) (CNS7056FEN32S): 93.78 (38.1)
- Fentanyl concentration-equivalence, theta (RSE%) (CNS7056FEN32S): 32.0 (8.87)
- Hill Coefficient, eta IIV (RSE%) (CNS7056FEN32S): 54.25 (11.9)
- Hill Coefficient, theta (RSE%) (CNS7056FEN32S): 4.30 (2.06)
- ke0, theta (RSE%) (CNS7056FEN32S): 12.4 (1.38) h^-1
- EC50, theta (RSE%) (CNS7056FEN32S, zero scores changed to -1.30): 0.375 (1.63) µg/ml
- EC50 (Geom. Mean (Typical Value)): 0.380 mg/L (≈ 0.865 µM)
- EMAX (Geom. Mean (Typical Value)): 4.84
- EMIN (Geom. Mean (Typical Value)): -1.54
- Fentanyl-equivalence factor (Geom. Mean (Typical Value)): 28.0
- Hill coefficient (Geom. Mean (Typical Value)): 5.16
- ke0 (Geom. Mean (Typical Value)): 12.1 h⁻¹
- Scoping Factor (Geometric Mean): 0.129
- Concentration -equivalence factor (Geometric Mean, N 99): 31.65
- EC50 (Geometric Mean, N 99): 0.372 mg/L (≈ 0.847 µM)
- Gamma (Geometric Mean, N 99): 5.480
- ke0 (Geometric Mean, N 99): 11.98 h⁻¹
- Scoping Factor (Maximum): 0.587
- Concentration -equivalence factor (Maximum, N 99): 330.8
- EC50 (Maximum, N 99): 0.736 mg/L (≈ 1.68 µM)
- Gamma (Maximum, N 99): 21.31
- ke0 (Maximum, N 99): 23.30 h⁻¹
- Scoping Factor (Mean): 0.178
- Concentration -equivalence factor (Mean, N 99): 40.78
- EC50 (Mean, N 99): 0.385 mg/L (≈ 0.876 µM)
- Gamma (Mean, N 99): 6.435
- ke0 (Mean, N 99): 12.35 h⁻¹
- Scoping Factor (Median): 0.110
- Concentration -equivalence factor (Median, N 99): 27.99
- EC50 (Median, N 99): 0.380 mg/L (≈ 0.865 µM)
- Gamma (Median, N 99): 5.229
- ke0 (Median, N 99): 12.14 h⁻¹
- Scoping Factor (Minimum): 0.023
- Concentration -equivalence factor (Minimum, N 99): 5.94
- EC50 (Minimum, N 99): 0.202 mg/L (≈ 0.46 µM)
- Gamma (Minimum, N 99): 1.151
- ke0 (Minimum, N 99): 5.58 h⁻¹
- inter-subject variability in the pharmacodynamic interaction (Run FEN06S): 162%
- EMAX, fitted [1]: 4.97
- EMIN, fitted [1]: -1.96
- EMAX, fitted [2]: 4.98
- EMIN, fitted [2]: -1.83
- EMAX, fitted [3]: 4.95
- EMIN, fitted [3]: -1.65
- EMAX, fitted [4]: 4.90
- EMIN, fitted [4]: -1.55
- EMAX, fitted [5]: 4.95
- EMIN, fitted [5]: -1.72
- EMAX, fitted [6]: 4.85
- EMIN, fitted [6]: -1.48
- EMAX, fitted [7]: 4.85
- EMIN, fitted [7]: -1.51
- EMAX, fitted [8]: 4.88
- EMIN, fitted [8]: -1.67
- EMAX, fitted [9]: 4.91
- EMIN, fitted [9]: -1.62
- EMAX, fitted [10]: 4.87
- EMIN, fitted [10]: -1.45
- EMAX, fitted [11]: 4.89
- EMIN, fitted [11]: -1.58
- EMAX, fitted [12]: 4.94
- EMIN, fitted [12]: -0.105
- Total Scores, Observed, MOAA/S score 0 [13]: 435
- Total Scores, Observed, MOAA/S score 1 [13]: 141
- Total Scores, Observed, MOAA/S score 2 [13]: 237
- Total Scores, Observed, MOAA/S score 3 [13]: 330
- Total Scores, Observed, MOAA/S score 4 [13]: 477
- Total Scores, Observed, MOAA/S score 5 [13]: 1144
- EC50 (Subject 1210): 0.269 mg/L (≈ 0.612 µM)
- EMAX (Subject 1210): 4.84
- EMIN (Subject 1210): -1.54
- Fentanyl-equivalence factor (Subject 1210): 126.8
- Hill coefficient (Subject 1210): 6.596
- ke0 (Subject 1210): 6.18 h⁻¹
- EC50, theta (RSE%) [14]: 0.333 (4.71) µg/ml
- Fentanyl concentration-equivalence, theta (RSE%) [14]: 28.2 (30.6)
- Hill coefficient (y), theta (RSE%) [14]: 4.69 (6.09)
- ke0, theta (RSE%) [14]: 12.6 (4.36) h^-1
- EMAX, theta (RSE%) [15]: 5.0 (--- )
- EMIN, theta (RSE%) [15]: 0.0 (--- )
- EC50, theta (RSE%) [16]: 0.380 (0.94) µg/ml
- EMAX, theta (RSE%) [16]: 4.84 (0.15)
- EMIN, theta (RSE%) [16]: -1.54 (1.75)
- Fentanyl concentration-equivalence, theta (RSE%) [16]: 28.0 (24.8)
- Hill coefficient (y), theta (RSE%) [16]: 5.16 (2.32)
- ke0, theta (RSE%) [16]: 12.1 (0.91) h^-1
- EC50, theta (RSE%) [17]: 0.339 (1.36) µg/ml
- Fentanyl concentration-equivalence, theta (RSE%) [17]: 30.9 (20.4)
- Hill coefficient (y), theta (RSE%) [17]: 4.74 (2.06)
- ke0, theta (RSE%) [17]: 12.8 (1.01) h^-1
- EMAX, theta (RSE%) [18]: 5.0 (--- )
- EMIN, theta (RSE%) [18]: 0.0 (--- )
- EC50, theta (RSE%) [19]: 0.386 (2.58) µg/ml
- EMAX, theta (RSE%) [19]: 4.84 (0.17)
- EMIN, theta (RSE%) [19]: -1.49 (1.67)
- Fentanyl concentration-equivalence, theta (RSE%) [19]: 30.6 (17.9)
- Hill coefficient (y), theta (RSE%) [19]: 5.23 (0.54)
- ke0, theta (RSE%) [19]: 12.3 (1.19) h^-1
- EC50, theta (RSE%) [20]: 0.333 (0.84) µg/ml
- Fentanyl concentration-equivalence, theta (RSE%) [20]: 28.9 (22.5)
- Hill coefficient (y), theta (RSE%) [20]: 4.7 (2.34)
- ke0, theta (RSE%) [20]: 12.6 (1.14) h^-1
- EMAX, theta (RSE%) [21]: 5.0 (--- )
- EMIN, theta (RSE%) [21]: 0.0 (--- )
- EC50, theta (RSE%) [22]: 0.381 (4.17) µg/ml
- EMAX, theta (RSE%) [22]: 4.84 (0.13)
- EMIN, theta (RSE%) [22]: -1.52 (1.76)
- Fentanyl concentration-equivalence, theta (RSE%) [22]: 28.9 (19.9)
- Hill coefficient (y), theta (RSE%) [22]: 5.19 (0.49)
- ke0, theta (RSE%) [22]: 12.1 (0.69) h^-1
